The target of the assay is Delta-type opioid receptor (Homo sapiens, UniProt P41143). Description: In Vitro ORL-1 Receptor Binding Assay.

Molecules are shown by their SMILES.

One may read the Ki as the equilibrium dissociation constant of an inhibitor or competing ligand from its target. Low values mean higher affinity, high ones lower affinity. Take `NC(=O)/N=c1\[nH]c2ccccc2n1C1CCN(C2CCCCCCC2)CC1`: the Ki stood at 10 nM.
